From patent publication US20130089641A1

What was measured:
[1] = second experiment: releasable iron in soymilk with iron salts added by concentration gradients
[2] = fourth experiment: releasable iron in soymilk with 50 ppm ferric pyrophosphate and VC, NaVC, KVC or CaVC additive; conditions: soymilk with 50 ppm iron as ferric pyrophosphate

ferric pyrophosphate
concentration of releasable iron ([1]; additive dosage of iron 30 ppm): 1.09 ppm | concentration of releasable iron ([1]; additive dosage of iron 50 ppm): 1.22 ppm | concentration of releasable iron ([1]; additive dosage of iron 75 ppm): 1.66 ppm | initially inhibiting concentration ([1]; point where releasable iron starts to rise with additive dosage): 50 ppm | releasable iron concentration before adding the ascorbic acid iron [2]: 1.22 ppm | the most effective additive dosage for ascorbic acid iron [2]: 100 mg/100 ml | release promoting rate of iron ([2]; after/before adding the ascorbic acid iron): 561% | releasable iron concentration after adding the ascorbic acid iron ([2]; at the most effective additive dosage 100): 6.98 ppm
